Experimental findings from patent publication US20250129087A1, “SALT CRYSTALS” (INTRA-CELLULAR THERAPIES, INC., priority 2022, published 2025) are described below.

A short description of this data set: Aqueous solubility of the salt crystals (shaking in water for 24 hours, LC analysis). Here is the method:
Samples are filtered and diluted (in a mixture of acetonitrile/water (1/1)) for LC analysis. Solubilities are calculated with the use of a calibration line. Furthermore, the pH values of the filtrated solutions are determined using pH indication paper.

Regarding `CN1C(=O)c2c(nn(Cc3ccc(-c4cccc(F)n4)cc3)c2Nc2ccccc2)N2C1=N[C@@H]1CCC[C@@H]12.O=C(O)c1ccncc1` [Isonicotinate Salt 1], the Appearance result (appearance of the sample after shaking in water for 24 hours (Slurry or Clear)) is reported as “Slurry”. The “Solubility” value (aqueous, shaking in water for 24 hours, filtered, LC analysis with calibration line) was 7.63 mg/mL.
